Experimental data published in US20090035258A1, “METHODS OF TREATING CANCER BY ADMINISTERING HUMAN IL-18 COMBINATIONS” (priority 2007, published 2009).

Test system: MOPC315 murine plasmocytoma transfected with ErbB2 (HER2)
Test: IL-18 and HERCEPTIN combination in mouse plasmacytoma model
Format: in vivo
Settings: study MOPC.D3J03; HERCEPTIN alone
Description: Both the MOPC315.D3j005 and MOPC.D3j03 studies were analyzed to evaluate effect of murine IL-18 (SEQ ID NO:2) combination therapy with HERCEPTIN® on the growth of murine plasmocytoma. For this experiment we had to transfect MoPC315 cells with ErbB2 (HER2). For transfection, we used 1.5 ug ErbB2 expression vector (BioCat—108912—cdna3.1(−) ErB2) in a 6-well dish, as described using liposomal transfection with Lipofectamine™ and Optimem™ media from Gibco. Selective pressure neomycin (450 ug/ml G418 Sigma G6816) was added to the cultures after 2 days. Initial positive populations were selected by fluorescent microscopic inspection of in situ cultures stained with Alexafluor488 labeled HERCEPTIN® monoclonal antibody and cloned by limiting dilution (206434 p 70-72). D3 ErbB2 expression tested with Alexafluor488 labeled HERCEPTIN® flow cytometry. MOPC.D3 cell line was selected and used for evaluation of HERCEPTIN® and IL-18 anti-tumor efficacy.
This study employed the combination of mIL-18 (SEQ ID NO:2) and HERCEPTIN®, an anti-Her2/neu receptor antibody, with the goal to use this therapy in breast cancer in a clinical trial. Combination therapy was tested in the well established murine plasmocytoma cell line, MOPC315. The tumor line was obtained from ATCC and transduced with the Her2 receptor in-house. […]
The data are expressed as mean+/−SD (FIG. 17), and as median+/−range (FIG. 18). […]

HERCEPTIN®: an anti-Her2/neu receptor antibody
anti-tumor activity as monotherapy: minimal activity
